Measured values as given in patent publication US20250170120A1, “ALLOSTERIC STING MODULATORS AND METHODS OF USE” (THE BOARD OF REGENTS OF THE UNIVERSITY OF TEXAS SYSTEM, priority 2022, published 2025).

Protein sequences, listed by entry. Tags and fused reporters are not part of them. Residues count along the entry.
UniProt Q3TBT3, whole entry: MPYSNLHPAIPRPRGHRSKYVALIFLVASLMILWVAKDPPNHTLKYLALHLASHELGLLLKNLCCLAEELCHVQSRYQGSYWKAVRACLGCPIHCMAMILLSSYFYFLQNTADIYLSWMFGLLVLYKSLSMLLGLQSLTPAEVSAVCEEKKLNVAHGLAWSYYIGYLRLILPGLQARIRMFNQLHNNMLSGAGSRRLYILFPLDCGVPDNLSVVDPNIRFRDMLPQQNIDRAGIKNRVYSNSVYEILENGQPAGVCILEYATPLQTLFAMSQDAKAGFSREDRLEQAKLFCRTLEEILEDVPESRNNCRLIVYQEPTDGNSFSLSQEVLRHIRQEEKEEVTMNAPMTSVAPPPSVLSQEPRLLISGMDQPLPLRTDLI
UniProt Q86WV6, whole entry H232R: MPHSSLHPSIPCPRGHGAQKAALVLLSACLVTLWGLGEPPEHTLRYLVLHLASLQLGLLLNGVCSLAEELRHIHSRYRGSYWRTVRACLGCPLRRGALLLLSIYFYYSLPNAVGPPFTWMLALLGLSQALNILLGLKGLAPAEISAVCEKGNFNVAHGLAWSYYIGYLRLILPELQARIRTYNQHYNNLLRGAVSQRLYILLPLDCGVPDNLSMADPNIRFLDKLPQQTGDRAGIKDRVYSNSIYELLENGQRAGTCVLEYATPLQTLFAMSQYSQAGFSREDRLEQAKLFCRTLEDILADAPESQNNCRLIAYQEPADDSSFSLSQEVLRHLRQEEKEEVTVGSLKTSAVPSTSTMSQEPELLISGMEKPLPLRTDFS
UniProt Q86WV6, 1-343 H232R limits assumed: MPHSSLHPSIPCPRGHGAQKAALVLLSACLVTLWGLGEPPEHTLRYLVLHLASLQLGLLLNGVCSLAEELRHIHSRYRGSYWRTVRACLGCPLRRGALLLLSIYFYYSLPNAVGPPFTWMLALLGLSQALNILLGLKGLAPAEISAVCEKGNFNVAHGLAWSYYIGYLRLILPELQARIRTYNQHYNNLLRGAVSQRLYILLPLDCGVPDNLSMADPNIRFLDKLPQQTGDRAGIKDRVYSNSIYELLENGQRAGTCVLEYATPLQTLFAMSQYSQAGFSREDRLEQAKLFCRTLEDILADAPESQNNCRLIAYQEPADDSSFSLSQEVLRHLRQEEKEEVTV
UniProt Q86WV6, whole entry R71H/G230A/H232R/R293Q: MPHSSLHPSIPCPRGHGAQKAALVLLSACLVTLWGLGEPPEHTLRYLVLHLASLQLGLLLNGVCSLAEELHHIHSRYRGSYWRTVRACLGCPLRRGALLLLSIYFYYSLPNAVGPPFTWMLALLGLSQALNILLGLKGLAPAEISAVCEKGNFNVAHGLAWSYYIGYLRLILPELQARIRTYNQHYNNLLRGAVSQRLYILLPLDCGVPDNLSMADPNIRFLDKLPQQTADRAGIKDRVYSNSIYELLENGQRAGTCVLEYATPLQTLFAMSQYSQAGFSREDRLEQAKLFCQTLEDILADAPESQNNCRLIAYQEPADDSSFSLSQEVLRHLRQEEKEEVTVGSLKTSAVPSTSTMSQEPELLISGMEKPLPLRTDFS

What was measured:
[1] = biological target: mouse STING (Mus musculus, UniProt Q3TBT3); details: cited from earlier work
[2] = biological target: STING (Homo sapiens, UniProt Q86WV6, G230A/H232R/R293Q/R71H); assay: Induction of interferon by compound alone in THP-1 cells (agonist activity); details: increasing concentrations of compound
[3] = biological target: T1, human STING (Homo sapiens, UniProt Q86WV6); details: cited from earlier work
[4] = biological target: T2, human STING (Homo sapiens, UniProt Q86WV6, H232R); assay: Native gel analysis of oligomerization of purified human STING; format: biochemical; details: detergent solution, either one alone
[5] = biological target: T1, human STING; assay: Western blot of phosphorylation of STING, TBK1 and IRF3 in HEK293T cells transfected with human STING; format: cell-based; details: C53 and cGAMP together vs either alone
Description: Western blot analyses of phosphorylation of STING, TBK1 and IRF3. The coding sequence for full-length human STING fused with a C-terminal FLAG-tag was cloned into the pcDNA3.1A(+) vector (Invitrogen). Mutations were introduced by PCR-based mutagenesis. Plasmids were transfected with 500 ng into HEK293T cells in 6-well plates and cultured for additional 24 hours. […] Human STING protein was detected by anti-FLAG primary antibody (Bimake, Cat #A5712; 3000× dilution) and anti-Mouse IgG HRP-linked secondary antibody (Cell Signaling Technology, Cat #7076S; 3000× dilution). Phosphorylated STING was detected by Rabbit anti-phospho-STING (S366) antibody (Cell Signaling Technology, Cat #19781S; 1000× dilution) and anti-Rabbit IgG HRP-linked secondary antibody (Cell Signaling Technology, Cat #7074S; 3000× dilution). TBK1 was detected by Mouse anti-TBK1/NAK antibody (Cell Signaling Technology, Cat #51872S; 1000× dilution). Phosphorylated TBK1 was detected by Rabbit anti-phospho-TBK1/NAK antibody (Cell Signaling Technology, Cat #5483S; 1000× dilution). IRF3 was detected by Mouse anti-IRF3 antibody (Abcam, Cat #ab50772; 100× dilution) and phosphorylated IRF was detected by Rabbit anti-phospho-IRF3 (S386) (Abcam, Cat #ab76493; 1000× dilution).

[6] = biological target: T2, human STING; assay: Cryo-EM structure of human STING in complex with compound

Relative induction of interferon production by compound alone [2]: enhanced in a dose-dependent manner
Oligomerization of purified human STING, agonist alone [4]: failed to do so
SMILES: CC1(C)C(=O)N(Cc2c(F)cccc2Cl)c2cc(C(=O)NCc3c(F)cc(F)cc3F)ccc21
Activation of mouse STING [1]: not mouse STING
Activation of human STING [3]: activated human STING
Phosphorylation of STING-WT, TBK1 and IRF3 [5]: higher levels of phosphorylation of STING-WT, TBK1 and IRF3 than either agonist alone
Binding site in human STING (cryo-EM) [6]: bind to the cryptic site in human STING-TMD through an induced-fit mechanism
